# Reference: PMC5018964, “Visualization and ligand-induced modulation of dopamine receptor dimerization at the single molecule level” (Scientific Reports, 2016)
# Sequences of proteins named here, by UniProt entry; tags and fusion partners are left off. A change or cut given only in a name is not applied to a line headed by its entry. Residues count along the entry.
# UniProt P35462, whole entry: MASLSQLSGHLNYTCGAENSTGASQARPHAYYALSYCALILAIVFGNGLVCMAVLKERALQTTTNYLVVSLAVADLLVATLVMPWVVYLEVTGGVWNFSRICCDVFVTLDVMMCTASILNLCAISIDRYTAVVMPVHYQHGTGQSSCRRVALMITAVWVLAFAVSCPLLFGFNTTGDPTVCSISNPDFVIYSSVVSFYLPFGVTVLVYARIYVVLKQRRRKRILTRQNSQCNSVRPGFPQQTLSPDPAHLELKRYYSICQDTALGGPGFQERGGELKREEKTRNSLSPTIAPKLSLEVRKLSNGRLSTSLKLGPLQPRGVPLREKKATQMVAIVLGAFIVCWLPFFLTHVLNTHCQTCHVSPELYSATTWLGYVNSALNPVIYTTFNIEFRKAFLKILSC
# UniProt P14416, whole entry: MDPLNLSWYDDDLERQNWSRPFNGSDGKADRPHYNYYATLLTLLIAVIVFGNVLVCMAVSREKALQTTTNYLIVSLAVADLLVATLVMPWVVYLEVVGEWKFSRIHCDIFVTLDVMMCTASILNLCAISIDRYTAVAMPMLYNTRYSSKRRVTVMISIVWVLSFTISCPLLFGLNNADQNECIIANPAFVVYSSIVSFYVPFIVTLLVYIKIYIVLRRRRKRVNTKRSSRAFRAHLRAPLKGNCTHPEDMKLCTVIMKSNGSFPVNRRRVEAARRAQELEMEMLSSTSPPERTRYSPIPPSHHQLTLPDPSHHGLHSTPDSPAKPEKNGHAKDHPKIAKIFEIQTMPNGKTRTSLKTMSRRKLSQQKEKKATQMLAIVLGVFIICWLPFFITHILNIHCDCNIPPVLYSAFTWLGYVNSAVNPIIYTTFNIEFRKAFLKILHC
# UniProt P14416, 1-414 isoform 2: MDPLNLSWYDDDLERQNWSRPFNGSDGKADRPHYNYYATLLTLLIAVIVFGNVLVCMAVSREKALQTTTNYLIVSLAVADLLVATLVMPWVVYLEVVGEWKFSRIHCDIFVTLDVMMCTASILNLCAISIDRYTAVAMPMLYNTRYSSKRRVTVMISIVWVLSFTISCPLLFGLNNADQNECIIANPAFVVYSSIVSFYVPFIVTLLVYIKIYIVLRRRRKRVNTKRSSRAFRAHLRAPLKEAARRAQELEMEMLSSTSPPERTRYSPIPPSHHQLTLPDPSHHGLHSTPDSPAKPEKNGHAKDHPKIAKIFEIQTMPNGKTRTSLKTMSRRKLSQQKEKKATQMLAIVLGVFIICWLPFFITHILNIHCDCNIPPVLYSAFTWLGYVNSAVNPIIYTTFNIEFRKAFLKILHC
# Assays:
# SNAP-D2L receptor [1] = assay: Live-cell kinetic fluorescent ligand binding (association and dissociation); conditions: tested form: TFA salt; for dissociation time constant τ: CHO SNAP-D2L cells preincubated 60 min at 10-fold Ki, then 5 × 10^−6 M spiperone; for off-rate: one-phase exponential decay, 23°C, 5 x 10^-6 M spiperone in imaging buffer
# human D3 = human D3 (Homo sapiens, UniProt P35462); assay: [3H]spiperone competition/saturation binding, membranes of CHO cells expressing human D3; conditions: read-out: Ki ± s.d. hD3; [³H]spiperone competition, CHO cell membranes; tested form: TFA salt
# SNAP-D2L receptor [2] = biological target: SNAP-D2L receptor (Homo sapiens, UniProt P14416); assay: Single-molecule TIRF-M of SNAP-D2L receptors in CHO cells with ligands (dimerization, mobility, colocalization); conditions: tested form: TFA salt; for cell labeling by the fluorescent ligand after pretreatment with 10 μM spiperone (specificity): CHO cells stably expressing SNAP-D2L
# human D2S = human D2S (Homo sapiens, UniProt P14416); assay: [3H]spiperone competition/saturation binding, membranes of CHO cells expressing human D2S; conditions: read-out: Ki ± s.d. hD2S; [³H]spiperone competition, CHO cell membranes; tested form: TFA salt
# human D2L [3] = biological target: T1, human D2L (Homo sapiens, UniProt P14416); assay: [3H]spiperone competition/saturation binding, membranes of CHO cells expressing human D2L; conditions: read-out: Ki ± s.d. hD2L; [³H]spiperone competition, CHO cell membranes; tested form: TFA salt
# human D2L [4] = biological target: T1, human D2L; assay: Single-molecule TIRF-M of wild-type D2L receptors in CHO cells labeled with fluorescent ligands; assay type: cell-based; conditions: D2L wt in CHO cells labeled with fluorescent ligand, 10-fold Ki, mean ± s.d., tested form: TFA salt
Ki (human D3),"labeling of the receptors by the fluorescent ligand (SNAP-D2L receptor [2]; 10-fold Ki, SNAP-D2L and wild type D2L, spot densities compared to Alexa546-BG labeling)",cell labeling by the fluorescent ligand after pretreatment with 10 μM spiperone (specificity) (SNAP-D2L receptor [2]),"Average Dlat 24°C (average lateral diffusion coefficient) (SNAP-D2L receptor [2]; SNAP-D2L in CHO cells, 10 x Ki value labeling concentration, 24°C, mean ± s.d.)","Density (spots µm-2) (SNAP-D2L receptor [2]; SNAP-D2L in CHO cells, 10 x Ki value labeling concentration, mean ± s.d.)",Ki (human D2S),Ki (human D2L [3]),Average Dlat 24°C (average lateral diffusion coefficient) (human D2L [4]),Density (spots µm-2) (human D2L [4]),SMILES,"on-rate (SNAP-D2L receptor [1]; 300 nM ligand, 37°C, one-phase exponential association fit, mean ± s.e.m.)",dissociation time constant τ (SNAP-D2L receptor [1]),off-rate (SNAP-D2L receptor [1])
44 nM,> 90%,completely blocked,0.080 ± 0.004 µm² s-1,0.66 ± 0.04 spots µm-2,27 nM,30 nM,0.109 ± 0.006 µm² s-1,0.64 ± 0.04 spots µm-2,CCCCn1cc(CCCOc2ccc(CN3CCN(c4ccccc4OC)CC3)cc2OCCCCNC(=O)Cc2ccc3c(c2)C(C)(C)C2=C4C=C5C6=[N+](CCC5OC4CCN23)c2ccc(S(=O)(=O)[O-])cc2C6(C)C)nn1 (centres unmarked),0.204 ± 0.026 min⁻¹,27.6 min,0.036 ± 0.0013 min⁻¹
56 nM,,completely blocked,,,110 nM,150 nM,0.074 ± 0.016 µm² s-1,0.66 ± 0.04 spots µm-2,COc1ccccc1N1CCN(Cc2ccc(OCCCc3cn(CCCCCCCCn4cc(CCCOc5ccc(CN6CCN(c7ccccc7OC)CC6)cc5OCCCCNC(=O)Cc5ccc6c(c5)C(C)(C)C5=C7C=C8C9=[N+](CCC8OC7CCN56)c5ccc(S(=O)(=O)[O-])cc5C9(C)C)nn4)nn3)c(OCCCCNC(=O)Cc3ccc4c(c3)C(C)(C)C3=C5C=C6C7=[N+](CCC6OC5CCN34)c3ccc(S(=O)(=O)[O-])cc3C7(C)C)c2)CC1 (centres unmarked),,55.2 min,0.018 ± 0.0018 min⁻¹
